Data from patent US12258561B2, “Compositions and methods to promote bone formation and their uses including for the treatment of cancer” (THE RESEARCH FOUNDATION FOR THE STATE UNIVERSITY OF NEW YORK, priority 2014, dated 2025).

What was measured:
[1] = system: MSC cultures induced to become osteoblasts; assay: Osteogenesis: mineral formation in MSC with osteoinduction media (alizarin red-S staining); assay type: cell-based, human; conditions: positive control, relative to controls
Source text: Methods: Human Bone Marrow was Collected from Consenting Adult Patients undergoing either an elective primary proximal femoral total hip arthroplasty or elective primary distal femoral total knee arthroplasty (n=6, mean age 65) as a part of an IRB approved study. Human MSC were derived from the adherent fraction of cells derived from each whole bone marrow aspirate collected, while the monocyte population was collected from the non-adherent fraction of the bone marrow. The monocyte fraction was enriched through sub-culture with 100-ng/mL recombinant human macrophage colony-stimulating factor (MCSF; Wyeth). In parallel experiments described below, the femurs from 3-week (n=10) and 16-week (n=20) old male mice were collected and then the bone marrow was flushed from the femur according to the following: A 21-gauge needle was inserted into the femoral intramedular canal after the removal of the proximal and distal ends of the femur. Media was then carefully passed through the proximal end of the femur, which forced the bone marrow to pass out of the bone. Finally, the bone marrow pellet was mechanically disassociated using an 18-gauge needle and then passed through a 70-μm mesh filter. These whole bone marrow aspirates were used to generate osteoclasts. […]

[2] = system: unicortical defect in mouse tibia; assay: Opioid antagonist containing collagen implant in unicortical defect model, microCT; assay type: in vivo, C57BL/6 mice; conditions: 7 days after surgery
Source text: Implantation of Opioid Antagonist Containing Collagen Implant into a Unicortical Defect Model: Male 5-week old C57BL/6 mice (n=5 per treatment group for a total of 25 total animals) were used in this study. Treatment groups consisted of the following: 1) PBS+collagen sponge; 2) met5+collagen sponge; 3) BMP2+collagen sponge; 4) naltrexone+collagen sponge; 5) naloxone+collagen sponge. Unicortical defects were surgically administered through a small incision (approximately 3-mm) made just below the knee joint, located on the medial side of the tibia just below the tibial tuberosity on the tibial crest. In 5-weeks old male mice, the physeal plate is clearly visible and the drill bit was placed approximately 1-mm below this point. The drill-bit produces a unicortical defect with dimensions 300-μm diameter×1-mm depth. Bovine collagen sponge implants (Duraform) were prepared (approximately 1-mm×1-mm) and then soaked in PBS, 50-μM (28.7-μg in 10-μL), met-5 enkephalin (met5), 25-ng BMP2, 1-mM naltrexone (378-μg in 10-μL) or naloxone 1-mM (400-μg in 10-μL) (n=5 for each group, 25 total animals). […] In parallel, a separate group of animals served as non-surgical controls. Mice were euthanized 7-days after surgery, hind limbs were collected and tibias were prepared for micro-CT (μCT) analysis.
MicroCT Analysis of Unicortical Defects: High-resolution images of the tibia were acquired with μCT imaging system (μT40; Scanco Medical). Tibias were scanned at 45-keV with an isotropic voxel size of 12-μm. An analysis region was selected from axial sections to include the entire unicortical defect bounded by the endosteal cortical wall. The volume corrected bone volume (bone volume/total volume; By/Tv), trabecular number (TbN) and trabecular thickness (TbTh) were calculated using the Scanco software.

[3] = system: posterolateral lumbar spine; assay: Rat posterolateral spinal fusion of L5-L6 vertebrae, microCT; assay type: in vivo, Sprague-Dawley rats; conditions: collagen sponge implant; 25-ng BMP2 or 1-mM naloxone, 2-months
Source text: Rat Posterolateral Spinal Fusion of L5-L6 Vertebrae: 20 male, […] skeletally mature Sprague-Dawley rats underwent bilateral lumbar posterolateral spinal fusion at the L5-L6 vertebrae. Treatment groups will consist of the following: 1) sham surgery control; 2) collagen sponge implant; 3) BMP2+collagen sponge implant; 4) naloxone+collagen sponge implant. Under sterile conditions a 2-cm long posterior midline incision centered at L5-L6 vertebrae was made. A muscle-splitting approach was used, lateral to the facet joints, to expose the transverse processes of a particular vertebra. A high-speed 1-mm burr was used to decorticate the transverse processes of the L5-L6 vertebrae. Implants were prepared and implanted between the transverse processes bilaterally in the paraspinal muscle bed. Bovine collagen sponge implants will be prepared (approximately 1-cm×1-cm) and then soaked in PBS, 25-ng BMP2, 1-mM naloxone (400-μg in 10-μL). Animals were euthanized 2-months (n=5 rats per time point per treatment group for a total of n=20 rats) spines were collected and prepared for micro-CT (μCT) analysis.

[4] = 25-ng BMP2, 1-mM naltrexone or 1-mM naloxone

B1: BMP2: recombinant bone morphogenic protein-2, positive control; b73 names recombinant human BMP2/BMP7-ligand (R&D Systems) (protein, UniProt P12643 283-396, looked up)
Bone morphogenetic protein 2: QAKHKQRKRLKSSCKRHPLYVDFSDVGWNDWIVAPPGYHAFYCHGECPFPLADHLNSTNHAIVQTLVNSVNSKIPKACCVPTELSAISMLYLDENEKVVLKNYQDMVVEGCGCR
mineral formation [1]: increased mineral formation relative to controls
Bv/Tv relative to non-surgical controls [2]: increased relative to non-surgical controls
trabecular thickness (TbTh) relative to the control non-surgical group [2]: increased within the defect significantly
increase in Bv/Tv relative to the PBS treated group [2, 4]: 32.4%
increase in Bv/Tv relative to the surgical control group [2, 4]: 55.6%
bone formation in the lumbar spine versus collagen implants alone [3]: increased bone formation over the collagen implants alone
